This assay addresses gp130 on HEK-Blue IL-6 cells (human) (UniProt P40189). The experiment in a line: cell-based or functional assay.

Amino acid sequences for entries named in this document (tags omitted). Residues count along the entry.
UniProt P40189, 23-918 limits assumed: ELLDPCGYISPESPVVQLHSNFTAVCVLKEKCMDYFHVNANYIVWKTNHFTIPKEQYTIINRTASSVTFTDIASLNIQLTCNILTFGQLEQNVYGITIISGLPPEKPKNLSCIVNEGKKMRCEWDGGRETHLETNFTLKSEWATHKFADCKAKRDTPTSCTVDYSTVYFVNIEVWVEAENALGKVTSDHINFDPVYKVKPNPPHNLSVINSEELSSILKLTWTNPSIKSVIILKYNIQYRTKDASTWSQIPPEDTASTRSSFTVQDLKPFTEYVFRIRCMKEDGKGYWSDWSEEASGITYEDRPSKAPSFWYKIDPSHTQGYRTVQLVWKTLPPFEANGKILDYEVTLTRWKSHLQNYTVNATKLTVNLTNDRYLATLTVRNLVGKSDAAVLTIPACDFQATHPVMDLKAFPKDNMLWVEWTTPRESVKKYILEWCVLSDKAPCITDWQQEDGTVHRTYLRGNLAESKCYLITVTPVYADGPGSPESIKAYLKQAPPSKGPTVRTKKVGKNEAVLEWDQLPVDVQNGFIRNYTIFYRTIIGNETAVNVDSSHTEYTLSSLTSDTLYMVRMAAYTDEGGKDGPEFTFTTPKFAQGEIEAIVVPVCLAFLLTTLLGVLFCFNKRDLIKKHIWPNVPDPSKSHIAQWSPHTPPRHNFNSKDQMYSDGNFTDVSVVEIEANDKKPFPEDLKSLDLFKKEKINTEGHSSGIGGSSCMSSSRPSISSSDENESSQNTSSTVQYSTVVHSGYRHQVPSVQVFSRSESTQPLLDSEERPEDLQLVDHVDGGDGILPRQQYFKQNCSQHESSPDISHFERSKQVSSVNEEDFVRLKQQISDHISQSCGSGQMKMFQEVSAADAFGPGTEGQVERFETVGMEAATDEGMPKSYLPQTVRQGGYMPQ

In the case of “IL-6 (from UniProt P05231 30-212) (ligand)”, the EC50, IL-6-induced SEAP reporter in HEK-Blue IL-6 cells (agonist activity) came to 1 pM.

Source of the values: patent publication US20130336924A1.
